For 25 molecules, IC50 results are on record in patent US8609644B2, “Amino derivatives of androstanes and androstenes as medicaments for cardiovascular disorders” (priority 2006, dated 2013).

Molecules are shown by their SMILES. Counter-ions that a name gives are not always drawn.

For this test, the target named is Na+, K+-ATPase (Canis lupus familiaris, UniProt P50997). The note with it: read-out: Na+, K+-ATPase Inhibition IC50; dog kidney enzyme.
One may read the IC50 as the concentration at which inhibition is half-maximal. Turning to `CC12CCC3C(CC(=NO)C4CC(C=CCCCN)CCC43C)C1CCC2=O` (stereo not shown), the IC50 was 1100 nM.

With `CNCCON=C1CC[C@]2(C)[C@H]3CC[C@]4(C)C(=O)CC[C@H]4[C@@H]3C/C(=N\O)[C@@]2(O)C1`, the IC50 was 1300 nM.

As to `C[C@]12CC[C@H](OC(=O)CCCN)CC1/C(=N/O)C[C@@H]1[C@@H]2CC[C@]2(C)C(=O)CC[C@@H]12` (stereo partly shown), the IC50 was 6000 nM.

In the case of `CC12CCC3C(CC(=NO)C4CC(C=CCCN)CCC43C)C1CCC2=O` (stereo not shown), the concentration for half-maximal inhibition (IC50) amounted to 250 nM.

Turning to `C[C@]12CC[C@H](SCCN)CC1/C(=N/O)C[C@@H]1[C@@H]2CC[C@]2(C)C(=O)CC[C@@H]12` (stereo partly shown), the IC50 worked out at 20000 nM.

Consider `C[C@]12CC[C@H](NC(=O)CCCN)CC1/C(=N/O)C[C@@H]1[C@@H]2CC[C@]2(C)C(=O)CC[C@@H]12` (stereo partly shown), for which the half-maximal inhibitory concentration (IC50) was found to be 85000 nM.

With `CNCCCON=C1CCC2(C)C(C1)CC(=NO)C1C3CCC(=O)C3(C)CCC12` (stereo not shown), the IC50 was 610 nM.

Regarding `C[C@]12CC[C@@H](SCCN)CC1/C(=N/O)C[C@@H]1[C@@H]2CC[C@]2(C)C(=O)CC[C@@H]12` (stereo partly shown), the IC50 was determined as 40000 nM.

On to `CNCCCON=C1CC[C@]2(C)[C@H]3CC[C@]4(C)C(=O)CC[C@H]4[C@@H]3C/C(=N\O)[C@@]2(O)C1` (mixture of isomers) [I-cr, (E,Z) 3-(3-N-Methylaminopropoxyimino)-5α-hydroxy-6-(E)-hydroxyiminoandrostan-17-one hydrochloride], for which the IC50 amounted to 430 nM.

In the case of `CC12CCC3C(C(O)C(=NO)C4CC(=NOCCN)CCC43C)C1CCC2=O` (stereo not shown), the IC50 turned out to be 2100 nM.

`CNCCCOC1CCC2(C)C(C1)C(=NO)CC1C3CCC(=O)C3(C)CCC12` (stereo not shown): the IC50 is 1100 nM.

Regarding `CC12CCC3C(C(=NO)CC4CC(=NOCCN)CCC43C)C1CCC2=O` (mixture of isomers) [I-bs, (E,Z)-3-(2-Aminoethoxyimino)-7-(E)-hydroxyiminoandrostane-17-one fumarate], the IC50 was found to be 130 nM.

For the molecule `C[C@]12CC[C@H](OC(=O)CCN)CC1/C(=N/O)C[C@@H]1[C@@H]2CC[C@]2(C)C(=O)CC[C@@H]12.Cl` (stereo partly drawn) [I-dm, 3β-(3-Aminopropionyloxy)-6-(E)-hydroxyiminoandrostan-17-one hydrochloride], the IC50 came out at 470 nM.

For `CNCCCSC1CCC2(C)C(C1)C(=NO)CC1C3CCC(=O)C3(C)CCC12` (stereo not shown), the IC50 came to 1700 nM.

For the molecule `CNCCCON=C1CCC2(C)C(C1)C(=NO)CC1C3CCC(=O)C3(C)CCC12` (stereo not shown), the IC50 was 200 nM.

Turning to `CC(C)(N)CON=C1CC[C@@]2(C)[C@H](C1)/C(=N/O)C[C@@H]1[C@@H]2CC[C@]2(C)C(=O)CC[C@@H]12`, the IC50 was 25000 nM.

As for `C[C@]12CC[C@H](OC(=O)CN)CC1/C(=N/O)C[C@@H]1[C@@H]2CC[C@]2(C)C(=O)CC[C@@H]12` (stereo partly shown), the half-maximal inhibitory concentration (IC50) is 90000 nM.

Consider `C[C@]12CCC(=NO[C@H]3CC[C@@H](N)CC3)C[C@@H]1/C(=N/O)C[C@@H]1[C@@H]2CC[C@]2(C)C(=O)CC[C@@H]12`, for which the IC50 came out at 85000 nM.

In the case of `CC1C(=NO)C2CC(=NOCCN)CCC2(C)C2CCC3(C)C(=O)CCC3C12` (stereo not shown), the IC50 turned out to be 620 nM.

Consider `CC(N)CC(=O)O[C@H]1CC[C@@]2(C)C(C1)/C(=N/O)C[C@@H]1[C@@H]2CC[C@]2(C)C(=O)CC[C@@H]12` (stereo partly shown), for which the IC50 is 950 nM.

As to `CC(CN)C(=O)O[C@H]1CC[C@@]2(C)C(C1)/C(=N/O)C[C@@H]1[C@@H]2CC[C@]2(C)C(=O)CC[C@@H]12` (stereo partly shown), the IC50 is 1100 nM.

Consider `CC12CCC3C(CC(=NO)C4CC(=NOCCN)CCC43C)C1CCC2=O` (stereo not shown), for which the IC50 was found to be 24 nM.

With `C[C@]12CC[C@H](SCCCN)CC1/C(=N/O)C[C@@H]1[C@@H]2CC[C@]2(C)C(=O)CC[C@@H]12` (stereo partly shown), the IC50 stood at 1500 nM.

As for `C[C@]12CC[C@H](OC(=O)NCCN)CC1/C(=N/O)C[C@@H]1[C@@H]2CC[C@]2(C)C(=O)CC[C@@H]12` (stereo partly shown), the IC50 came to 6200 nM.

As for `C[C@]12CC[C@H](NC(=O)CCN)CC1/C(=N/O)C[C@@H]1[C@@H]2CC[C@]2(C)C(=O)CC[C@@H]12` (stereo partly shown), the IC50 came to 70000 nM.
